These are literature values, as cited in patent US7378494B2, “Pituitary adenylate cyclase activating peptide (PACAP) receptor (VPAC2) agonist peptide” (Bayer HealthCare AG, priority 2002, dated 2008).

For the data set the following is noted: cited from earlier work.

PACAP-27: the half-life in vivo is recorded as below 10 min.
